From patent US9249087B2, “HDAC inhibitors and therapeutic methods using the same” (THE BOARD OF TRUSTEES OF THE UNIVERSITY OF ILLINOIS, priority 2011, dated 2016) come the findings set out here.

Sequences of proteins named here, by UniProt entry; tags and fusion partners are left off. A change or cut given only in a name is not applied to a line headed by its entry.
UniProt Q96DB2: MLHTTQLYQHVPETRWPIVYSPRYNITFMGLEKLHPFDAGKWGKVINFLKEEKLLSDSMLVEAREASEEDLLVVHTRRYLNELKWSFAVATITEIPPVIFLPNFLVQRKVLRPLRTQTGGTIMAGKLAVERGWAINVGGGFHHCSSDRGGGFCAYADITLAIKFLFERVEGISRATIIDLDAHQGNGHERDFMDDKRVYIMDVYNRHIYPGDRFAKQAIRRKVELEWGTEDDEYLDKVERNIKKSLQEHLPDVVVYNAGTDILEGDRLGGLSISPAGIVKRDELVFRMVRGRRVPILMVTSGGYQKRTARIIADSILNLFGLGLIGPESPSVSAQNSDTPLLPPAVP

The assay deals with HDAC11 (Homo sapiens (Human), UniProt Q96DB2). The experiment in a line: HDAC11 fluorogenic peptide deacetylation inhibition assay. The assay is classed as biochemical. To be noted: average of two experiments; read-out: HDAC Isoform IC50 (μM) 11.

Consider `O=C(CCCCCCC(=O)Nc1ccc([C@H]2O[C@@H](CSc3nc(-c4ccccc4)c(-c4ccccc4)o3)C[C@@H](c3ccc(CO)cc3)O2)cc1)NO` [Tubacin], for which the IC50 was 3.79 µM.

In general, IC50 refers to the concentration that gives 50% inhibition.
